# From PubChem BioAssay
# The list is not random: actives were taken first. Their share in the collection is about 13%.
# Lamin A splicing: LMNA splicing modulation | 200,000 compounds, 0.01% hits | Potency, µM (doses to about 46.1 µM), without a hit: at the highest dose ratio change, negative = inhibition, hits mostly inhibitors | HeLa LMNA splicing GFP/RFP minigene ratio, 48 h; active means well fitted inhibition curve with a large enough effect in the signal ratio, with a control signal flat, not every such curve was filed as active; inconclusive means small, poorly fitted or top-dose-only effect, or effect the other way, or a change in a side signal; the % refers to the signal ratio; further: potency means the concentration at half of the fitted maximal effect; on the % scale 0 is the no-effect control and ±100 the full control effect
#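 S3 HeLa stable clones carrying a lamin A-EGFP splicing minigene plus DsRed2 were seeded at 600 cells/well in Opti-MEM with 2% FBS, pin-dosed and incubated 48 h at 37°C. Acumen cytometry (488 nm) gave the GFP/RFP total-intensity ratio.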
# Sfp inh: blocks B. subtilis Sfp PPTase activity; 310,000 tested, 3.5% active; AID 1490; Biochemical Sfp PPTase activity, qHTS; Potency, µM, for the others: max response, negative = inhibition, usual class: inhibitors; active = well fitted inhibition curve with a large enough effect; inconclusive = small, poorly fitted or top-dose-only effect, or another doubt; inactive = no such curve, though single readings can be large or run the other way;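 also: the enzyme is Sfp with the accession as filed and its product quenches rhodamine fluorescence; potency is read from the fitted curve at half-maximal effect; 0% = enzyme reaction without inhibitor and -100% = no enzyme wells; top concentration of the series not given in the record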
#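 Reaction rates are the 30-min fluorescence difference (ex 525, em 598 nm) in wells containing 15 nM Sfp, 5 uM rhodamine-CoA and 12.5 uM BHQ-2-YbbR at pH 7.6 with 10 mM MgCl2.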
# G9a inh: G9a (human) methyltransferase inhibition; G9a H3K9 monomethylation, AlphaScreen, 2 h; Potency, µM (highest dose often 102 µM), for the others: at the top dose activity, negative = inhibition, hits mostly inhibitors; 350,000 compounds, 8.8% hits; AID 504332; further: potency means the concentration at half of the fitted maximal effect; on the % scale 0 is the no-effect control and ±100 the full control effect; nearly all actives have a fitted effect of over 75% in size
#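 Chemiluminescent proximity detection of H3K9 monomethylation, read after 10 min bead incubation in the dark. Reaction: 20 nM G9a, 500 nM biotin-H3K9 peptide, 20 uM SAM cofactor, 2 h, room temperature, following 15 min enzyme-compound preincubation.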
# JMJD2E inh: JMJD2E (human) inhibition; AID 2147; JMJD2E catalytic domain, FDH-coupled NADH fluorescence (FDH is formaldehyde dehydrogenase); 230,000 compounds, 1.6% hits; Potency, µM (titrated, usually from 57.1 µM), inactives show at the highest dose activity change, negative = inhibition, most hits filed as inhibitors; B2RXH2; active means well fitted inhibition curve with a large enough effect, not every such curve was filed as active; inconclusive means small, poorly fitted or top-dose-only effect, or another doubt; inactive means no such curve, though single readings can be large or run the other way;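 further: potency means the concentration at half of the fitted maximal effect; 0% = wells with enzyme and -100% = buffer wells without enzyme; nearly all actives have a fitted effect of over 50% in size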
# miR-21 reporter: miR-21 reporter, rising signal | 340,000 tested, under 10 active | AID 2288 | HeLa miR-21 FLuc reporter, luciferase, 48 h | Potency, µM (titrated, usually from 38.3 µM), for inactives: at the highest dose reporter change, positive = more light; active = well fitted rising curve with a large enough effect; inconclusive = small, poorly fitted or top-dose-only effect; inactive = no such curve, though single readings can be large or run the other way;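 further: % of control where 0% means no effect; miR-21 action dims this reporter so a rising signal means less miR-21 action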
#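 HeLa miR-21-FLuc reporter line, endogenous miR-21; 2000 cells/well in DMEM/10% FBS; compound titration up to ~40uM final, 48 h, 37 degree Celsius; luciferase detection reagent, 15 min lysis, CCD luminescence.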
# ALDH1A1 block: blocks purified human ALDH1A1 activity | P00352 | Purified ALDH1A1, NADH fluorescence, propionaldehyde substrate | Potency, µM (highest dose often 75.3 µM), without a hit: at the highest dose activity, negative = inhibition, actives largely listed as inhibitors | 220,000 compounds, 7.3% hits | AID 1030; active means well fitted inhibition curve with a large enough effect, not every such curve was filed as active; inconclusive means small, poorly fitted or top-dose-only effect, or another doubt; inactive means no such curve, though single readings can be large or run the other way;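 further: potency means the concentration at half of the fitted maximal effect; plate controls were no enzyme wells and a reference inhibitor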
# Starred values were filed as active, the others as inactive; ? = inconclusive; nt = not tested or not shown; ! = not confirmed by another sample; [ ] = dose if it differs, or a comment. Unless noted, the call rests on the fitted dose curve; in most records, active means well fitted curve in the direction sought with a large enough effect; inconclusive means small, poorly fitted or top-dose-only effect, or another doubt; inactive means no such curve, though single readings can be large; an effect the other way counts as inactive or inconclusive.
1	COc1ccc(OC)c(N(CC(=O)NCc2ccccc2)S(=O)(=O)c2ccc(OC)c(OC)c2)c1
2	CCc1ccccc1NC(=O)CN(c1ccc(OC)cc1OC)S(=O)(=O)c1ccccc1
3	COc1ccc(OC)c(C(C)NC(=O)Nc2cccc(C(C)=O)c2)c1 (stereo not drawn)
4	COc1ccc(OC)c(N(CC(=O)NCc2ccccc2)S(=O)(=O)c2ccccc2)c1
5	COc1ccc(N(CC(=O)Nc2cccc(C(C)=O)c2)S(=O)(=O)c2ccccc2)c(OC)c1
6	Cc1ccc(NC(=O)Cn2c(-c3nonc3N)nc3ccccc32)cc1C
7	COCc1nnc(NC(C)=O)s1
8	C/C(=N\NC(=O)c1cc(-c2ccncc2)nc2ccccc12)c1ccc(N2CCOCC2)cc1

compound no.	1	2	3	4	5	6	7	8
Lamin A splicing	nt	nt	?	nt	nt	nt	?	16%[46 µM]
Sfp inh	50µM*	10%	-7%	nt	nt	nt	6%	5%
G9a inh	nt	23%[59 µM]	8%	?	3.2µM*	-3%[59 µM]	nt	1%
JMJD2E inh	nt	nt	-4%	nt	nt	nt	1%	0%
miR-21 reporter	-8%	7%	9%	-5%	26%	-41%	0%	12%
ALDH1A1 block	nt	nt	11µM*	nt	nt	nt	2%	12%

9	Cc1cccc(-n2c(O)c(C=NC3CCS(=O)(=O)C3)c3ccccc3c2=O)c1 (stereo not drawn)
10	Cc1cc(C)cc(-n2c(O)c(C=NC3CCS(=O)(=O)C3)c3ccccc3c2=O)c1 (stereo not drawn)
11	COc1ccc(C2=Nc3ccc(OC(F)(F)F)cc3NC(c3cccnc3)=N2)cc1
12	CC(C)c1nc2ccc(C(=O)NCc3ccc(F)cc3)cc2o1
13	COC(=O)C1=CO[C@@H](C)[C@@H]2CN3CCc4c([nH]c5ccccc45)[C@@H]3C[C@H]12
14	COC(=O)C1=CO[C@@H](C)[C@H]2CN3CCc4c([nH]c5ccccc45)[C@@H]3C[C@H]12
15	COC(=O)C1=COC(C)C2CN3CCc4c([nH]c5ccccc45)C3CC12 (stereo not drawn)
16	COC(=O)[C@H]1[C@H]2C[C@@H]3c4[nH]c5ccccc5c4CCN3C[C@H]2C[C@@H](OC(=O)c2cc(OC)c(OC)c(OC)c2)[C@@H]1OC

compound no.	9	10	11	12	13	14	15	16
Lamin A splicing	-9%	-24%	nt	?	nt	?	-3%	nt
Sfp inh	20%	6%	nt	nt	-7%	6%	9%	29%
G9a inh	?	17%[12.7 µM]	-22%[59 µM]	2%[59 µM]	nt	-42%[59 µM]	45µM*	?
JMJD2E inh	-3%	5%	nt	nt	nt	13µM*!	2%	nt
miR-21 reporter	-3%	-6%	16%	-5%	nt	nt	-3%	nt
ALDH1A1 block	16µM*	-4%	nt	nt	nt	0%[20.9 µM]	9%	nt

17	Cc1ccc(S(=O)(=O)N2CCCCC2)cc1NC(=O)c1ccc(Cl)nc1
18	O=C(NCc1cccc(C(F)(F)F)c1)c1ccc(=O)[nH]c1
19	Nc1cccc2c3c(oc12)CCCC3
20	Cc1ccc(CNCc2ccccc2Cl)s1
21	Cc1ccc(N=C2SC(C(=O)NCCc3ccccc3)CC(=O)N2C)cc1C (stereo not drawn)
22	Cc1ccc(N=C2SC(C(=O)O)CC(=O)N2C)cc1C (stereo not drawn)
23	O=S(=O)(NCc1ccc(F)cc1)c1ccc(N2CCCCS2(=O)=O)cc1
24	CCOC(=O)N1CCC(=NNc2ccc(S(=O)(=O)N3CCOCC3)cc2[N+](=O)[O-])CC1

compound no.	17	18	19	20	21	22	23	24
Lamin A splicing	nt	nt	nt	nt	6%[46 µM]	9%[46 µM]	8%[46 µM]	14%
Sfp inh	nt	7%	-18%	nt	14%	3%	nt	1%
G9a inh	2%[59 µM]	15%	40µM*	-15%[59 µM]	8%[59 µM]	-5%	0%[59 µM]	-6%[59 µM]
JMJD2E inh	nt	nt	nt	nt	-6%	4%	nt	-14%
miR-21 reporter	nt	3%	-15%	-28%	-1%	-9%	14%	2%
ALDH1A1 block	nt	nt	nt	nt	10µM*	3%	nt	?

# From no. 22 as far as 23, as listed above:
22	Cc1ccc(N=C2SC(C(=O)O)CC(=O)N2C)cc1C (stereo not drawn)
23	O=S(=O)(NCc1ccc(F)cc1)c1ccc(N2CCCCS2(=O)=O)cc1

compound no.	22	23
Lamin A splicing	9%[46 µM]	8%[46 µM]
Sfp inh	3%	nt
G9a inh	-5%	0%[59 µM]
JMJD2E inh	4%	nt
miR-21 reporter	-9%	14%
ALDH1A1 block	3%	nt

# (list continues)
25	CCOC(=O)N1CCC(=NNc2nc(C)cc(=O)[nH]2)CC1
26	CCN(CCCNC(=O)CN1N=C(c2ccccc2)CCC1=O)c1cccc(C)c1
27	CCCCN(CCCNC(=O)CN1N=C(c2ccc(C)cc2)CCC1=O)c1ccccc1
28	COc1ccc(-c2noc(CCC(=O)NCCc3ccccc3)n2)cc1
29	COc1ccc(C2=NN(CC(=O)NCCCN(C)c3ccccc3)C(=O)CC2)cc1
30	CCN(CCCNC(=O)CCc1nc(-c2ccc(OC)cc2)no1)c1cccc(C)c1
31	CCN(CCCNC(=O)CN1N=C(c2ccc(OC)cc2)CCC1=O)c1cccc(C)c1
32	Cc1cc(C)c(S(=O)(=O)N2CCC(n3c(C(F)(F)F)nc4cccnc43)CC2)c(C)c1

compound no.	25	26	27	28	29	30	31	32
Lamin A splicing	nt	0%[46 µM]	?	nt	?	?	4%[46 µM]	nt
Sfp inh	79µM*	nt	nt	-1%	nt	-3%	nt	nt
G9a inh	40µM*	14µM*	14µM*	-3%	?	25µM*	11µM*	5%[59 µM]
JMJD2E inh	-30%	nt	nt	nt	nt	1%	nt	nt
miR-21 reporter	-8%	11%	24%	-14%	12%	18%	5%	0%
ALDH1A1 block	7%	nt	nt	nt	nt	?	nt	nt

33	CCN(CCCNC(=O)CN1N=C(c2ccc(C)cc2)CCC1=O)c1ccccc1
34	Cc1ccc(C2=NN(CC(=O)O)C(=O)CC2)cc1
35	CC1=NNC(=O)C1C(c1ccccc1)C1C(=O)NN=C1C (stereo not drawn)
36	Cn1c(=O)c2c(nc(SCCN3CCOCC3)n2Cc2cccc3ccccc23)n(C)c1=O
37	CCN1CCN(Cc2nc3c(c(=O)n(C)c(=O)n3C)n2Cc2cccc3ccccc23)CC1
38	Cn1c(=O)c2c(nc(N3CCN(c4ccccn4)CC3)n2Cc2ccccc2Cl)n(C)c1=O
39	CCN1CCN(c2nc3c(c(=O)n(C)c(=O)n3C)n2Cc2cccc3ccccc23)CC1
40	COc1ccc(C(=O)Nc2ccc3nc(SCC(=O)N4CCCc5ccccc54)sc3c2)cc1

compound no.	33	34	35	36	37	38	39	40
Lamin A splicing	?	nt	nt	15%	-3%	4%	-12%	?
Sfp inh	nt	8%	?	-2%	2%	10%	15%	nt
G9a inh	10µM*	45µM*	?	?	4%[59 µM]	3%	40µM*	-22%[59 µM]
JMJD2E inh	nt	nt	-2%	2%	-11%	6%	-1%	nt
miR-21 reporter	?	-7%	0%	-18%	-7%	1%	-11%	-5%
ALDH1A1 block	nt	nt	32µM*	22µM*	?	1.1µM*	-15%	nt

41	Cc1ccc(SCc2nc3ccccc3n2CC(=O)Nc2ccccc2)cc1
42	Cc1ccc(SCc2nc3ccccc3n2CC(=O)Nc2ccc(Cl)cc2)cc1
43	CCCn1c(C)nc2c(N3CCC(N(C)C)C3)nc(C)nc21 (stereo not drawn)
44	COc1ccnc(CSC(N)=Nc2ccc(F)cc2)c1
45	COc1ccc(Cn2c(CO)cnc2SCc2ccc(F)cc2)cc1
46	C/C(=N\NC(=O)C(O)c1ccccc1)c1ccc(Br)s1 (stereo not drawn)
47	Cc1cc(=O)oc2cc(Oc3ncccc3[N+](=O)[O-])ccc12
48	O=[N+]([O-])c1cccnc1Oc1ccc(C2SCCS2)cc1

compound no.	41	42	43	44	45	46	47	48
Lamin A splicing	?	8%	nt	8%	?	nt	9%[46 µM]	nt
Sfp inh	50µM*	?	25%	22µM*	nt	-6%	-5%	-1%
G9a inh	46%[12.7 µM]	11%[12.7 µM]	nt	7.1µM*	-37%[59 µM]	-1%	-28%	nt
JMJD2E inh	0%	11%	1%	?	nt	nt	?	-1%
miR-21 reporter	-6%	-11%	nt	-45%	-6%	-4%	-2%	-58%
ALDH1A1 block	0%	7%	0%	?	nt	nt	?	18µM*
